AlphaSeq binding of Ab-14 heavy chain variants to a spike HR2 peptide

Target peptide (SARS-CoV-2 spike, HR2 region): PDVDLGDISGINAS

Parent: Ab-14, a human scFv built as VH, a 15-residue (Gly4Ser)3 linker, VL. Only the CDRs of the heavy chain vary.
VH: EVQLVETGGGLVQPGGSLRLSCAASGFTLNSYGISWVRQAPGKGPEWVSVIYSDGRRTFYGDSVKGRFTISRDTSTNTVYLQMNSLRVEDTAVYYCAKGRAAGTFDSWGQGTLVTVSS
VL: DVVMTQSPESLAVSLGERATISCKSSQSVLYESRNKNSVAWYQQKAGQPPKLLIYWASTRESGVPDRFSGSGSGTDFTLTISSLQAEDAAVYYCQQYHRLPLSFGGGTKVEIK

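The starting antibody came from a phage panning campaign against this peptide. This is the validation round: designs drawn from the data on random variants, tested in the same kind of assay. Their group label is 14H_En_HC (En: ensemble of fine-tuned language models; HC: hill climbing; a sequence that several methods proposed may carry one label only). The scFvs were displayed on barcoded MATa yeast, the peptide on MATalpha yeast. The frequency of each diploid, read from paired DNA barcodes, reflects how well the two displayed proteins bind. The ratio of observed to expected reads was calibrated, replicate by replicate, on BCL2-family standards whose Kd was known from biolayer interferometry. Each pool was mated in six replicate cultures.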

Variants are written as CDR1, CDR2 and CDR3 of the heavy chain (limits as in the source). Parent: GFTLNSYGIS, VIYSDGRRTFYGDSVK, GRAAGTFDS. The read-out is the apparent dissociation constant on a log10 scale (nM): the lower, the stronger. The mean shown is taken over the replicates in which the pair was detected. Where no diploid with the target was found in that replicate, the entry reads "n.d.": below detection, most likely a poor binder, though not proof of it.

CDR-H1	CDR-H2	CDR-H3	log10 Kd (nM) by replicate	mean, log10 nM	empty controls
GFDLNEYGIS	VIYADGRRTFYVDSVK	GVHAGTFDV	-0.38 -0.48 -0.79 -0.84 -0.42 -0.24	-0.53	0/18
GFDLNEYGIS	VIYADGRRTFYADSVK	GNTAGTFLI	-0.08 -0.32 0.08 -0.39 -0.21 -0.23	-0.19	1/18 (1.26)
GFDLNEYGIS	VIYADGRRTAYQDSVK	GEAAGTFDQ	-0.39 -0.50 -0.17 -0.85 -0.42 -0.50	-0.47	0/18
GFDLNEYGIS	VIYADGRRTAYQDSVK	GQVAGTFDS	0.26 0.93 1.12 0.18 0.60 1.47	0.76	0/18
GFNLDEYGIS	VIYADGRRTAYSDNVK	GEVAGTFDI	-0.20 0.84 -0.16 0.85 -0.67 -0.25	0.07	0/18
GFDLNEYGIS	VIYADGRRTFYKDSVK	GEIAGTFDQ	-0.91 -0.39 0.12 -0.32 -1.56 -0.69	-0.63	0/18
GFDLENYGIS	VIYADGRRTFYSDSVK	GENAGTFDI	-0.31 -0.64 -0.37 -0.60 -0.66 -0.31	-0.48	0/18
GFDLESYGIS	VIYADGRRTFYADDVK	GVNAGTFDI	0.42 0.06 0.65 0.00 0.18 0.41	0.29	0/18
GFDLNEYGIS	VIYADGRRTFYIDSVK	GEQAGTFDM	0.19 -0.76 -0.04 -0.22 -0.26 -0.45	-0.26	1/18 (1.17)
GFDLNEYGIS	VIYADGRRTAYTDSVK	GHEAGTFDL	-0.29 n.d. -0.57 0.06 -0.03 0.40	-0.08	0/18
GFDLNEYGIS	VIYADGVRTFYADSVK	GEAAGTFDV	-0.12 -0.44 -0.27 -0.60 -0.42 -0.43	-0.38	2/18 (1.95)
GFDLNEYGIS	VIYADGRRTFYVDSVK	GTNGGTFDV	0.12 0.28 -0.03 -0.04 0.11 0.19	0.11	1/18 (2.64)
GFNLNEYGIS	VIYADGRRTFYADSVK	GEVAGTFDI	-0.47 0.00 -0.46 -0.57 -0.64 -0.55	-0.45	0/18
GFDLNEYGIS	VIYADGQRTFYTDSVK	GTDAGTFDV	-0.19 1.21 n.d. n.d. n.d. 1.70	0.91	0/18
GFQLDEYGIS	VIYADGRRTFYQDSVK	GEVAGTFDF	0.08 -0.16 -0.36 -0.16 -0.43 0.07	-0.16	0/18
GFDLDEYGIS	VIYADGMRTFYADSVK	GNNAGTFLS	0.50 -0.19 2.57 1.73 0.29 0.18	0.85	1/18 (1.23)
GFDLNEYGIS	VIYADGRRTFYADSVK	GNQAGTFIS	0.88 0.84 0.34 0.65 0.36 0.65	0.62	0/18
GFDLNEYGIS	VIYADGKRTAYSDSVK	GGNAGFFDS	n.d. n.d. n.d. n.d. n.d. n.d.	n.d.	0/18
GFDLEDYGIS	VIYADGRRTQYADSVK	GEIAGTFDL	0.23 0.09 0.28 -0.43 0.22 -0.01	0.07	0/18
GFNLNEYGIS	VIYADGRRTFYADSVK	GENAGSFDI	-0.08 -0.02 0.23 0.08 0.35 -0.05	0.08	1/18 (1.79)
GFDLNEYGIS	VIYADGRRTAYSDSVK	GEVAGFFDF	n.d. n.d. n.d. n.d. n.d. n.d.	n.d.	1/18 (1.62)
GFDLNEYGIS	VIYADGRRTFYADSVK	GNNAGTFDQ	-0.34 -0.51 -0.72 -0.52 -0.21 -0.46	-0.46	0/18
GFDLNEYGIS	VIYADGKRTFYVDSVK	GQVAGTFNV	-0.34 -0.51 -0.65 -0.57 -0.59 -0.46	-0.52	0/18
GFDLNEYGIS	VIYADGRRTFYADSVK	GEVAGTFFS	-0.61 -0.65 -0.68 -0.42 -0.96 -0.33	-0.61	0/18
GFDLNEYGIS	VIYADGQRTAYADSVK	GKVAGTFDS	-0.61 -0.97 -0.76 -0.47 -0.57 -1.20	-0.76	1/18 (0.20)
GFTLDEYGIS	VIYADGQRTFYTDSVK	GGNAGTFDV	-0.26 -0.10 -0.09 -0.27 -0.66 -0.77	-0.36	0/18
GFDLNEYGIS	VIYADGRRTFYSDSVK	GEAAGTFDT	0.01 -0.12 -0.27 -0.32 -0.16 0.14	-0.12	1/18 (1.70)
GFDLNEYGIS	VIYADGRRTSYLDSVK	GEAAGTFDV	-0.18 -0.31 -0.42 0.59 -0.63 0.57	-0.06	0/18
GFDINEYGIS	VIYADGMRTFYTDSVK	GGNAGTFDS	0.13 0.65 0.41 0.06 -0.16 0.08	0.19	1/18 (3.41)
GFTLDEYGIS	VIYADGRRTFYSDSVK	GSNAGTFDV	-0.40 -0.30 -0.83 -0.31 -0.50 -0.06	-0.40	0/18
GFDLNEYGIS	VIYADGRRTFYIDSVK	GQLAGTFDL	0.39 0.51 -0.07 0.58 0.25 1.00	0.44	1/18 (3.68)
GFNLDEYGIS	VIYADGRRTFYADSVK	GQIAGTFIV	2.26 0.52 1.09 0.14 0.40 0.65	0.84	0/18
GFDLNEYGIS	VIYADGVRTFYADSVK	GEHAGTFDI	0.28 0.29 0.16 0.04 0.35 0.37	0.25	1/18 (2.34)
GFDLDEYGIS	VIYADGRRTFYADSVK	GTNAGTFLM	0.76 0.55 0.52 0.82 0.58 1.11	0.72	0/18
GFDLNEYGIS	VIYADGVRTFYVDSVK	GESAGTFDT	-0.02 -0.36 -1.43 -0.16 -0.76 -1.17	-0.65	0/18
GFNLNEYGIS	VIYADGRRTFYTDDVK	GEVAGTFDV	-0.10 0.01 -0.39 0.00 0.44 -0.37	-0.07	0/18
GFDLNEYGIS	VIYADGRRTFYSDSVK	GEIAGTFNV	-0.61 -0.76 -0.77 -1.14 -0.79 -0.42	-0.75	0/18
GFSLDEYGIS	VIYADGRRTFYADSVK	GNTAGTFDS	-0.12 -0.40 -0.52 -0.58 -0.46 -0.26	-0.39	1/18 (2.54)
GFDLNEYGIS	VIYADGKRTFYSDSVK	GNIAGTFDV	-0.98 -1.37 -0.81 -0.75 -1.28 -0.83	-1.00	0/18

The last 7 entries again:

CDR-H1	CDR-H2	CDR-H3	log10 Kd (nM) by replicate	mean, log10 nM	empty controls
GFDLNEYGIS	VIYADGVRTFYADSVK	GEHAGTFDI	0.28 0.29 0.16 0.04 0.35 0.37	0.25	1/18 (2.34)
GFDLDEYGIS	VIYADGRRTFYADSVK	GTNAGTFLM	0.76 0.55 0.52 0.82 0.58 1.11	0.72	0/18
GFDLNEYGIS	VIYADGVRTFYVDSVK	GESAGTFDT	-0.02 -0.36 -1.43 -0.16 -0.76 -1.17	-0.65	0/18
GFNLNEYGIS	VIYADGRRTFYTDDVK	GEVAGTFDV	-0.10 0.01 -0.39 0.00 0.44 -0.37	-0.07	0/18
GFDLNEYGIS	VIYADGRRTFYSDSVK	GEIAGTFNV	-0.61 -0.76 -0.77 -1.14 -0.79 -0.42	-0.75	0/18
GFSLDEYGIS	VIYADGRRTFYADSVK	GNTAGTFDS	-0.12 -0.40 -0.52 -0.58 -0.46 -0.26	-0.39	1/18 (2.54)
GFDLNEYGIS	VIYADGKRTFYSDSVK	GNIAGTFDV	-0.98 -1.37 -0.81 -0.75 -1.28 -0.83	-1.00	0/18

The parent sequence was in this pool as ten entries: three were never detected, three once, and four in most replicates, with averages from 0.34 to 2.37. Background: pairings of all heavy chain designs with three empty control strains gave a value in 1% of cases (median 2.08, 5th percentile 0.84). Values in that range, when seen in few replicates, are hard to tell from nonspecific mating. Also given: how often the same scFv was detected with the empty control strains, with their mean in brackets. The range of this assay differs from that of the first round, and the authors advise against merging the two. In the paper, a design with two or fewer of six values counts as a poor binder.

Source: Li et al. 2023 (doi:10.1038/s41467-023-39022-2), MIT Lincoln Laboratory and A-Alpha Bio; data file from the FLAb repository.